Experimental data published in ChEMBL document CHEMBL3638956, “Tetrahydro-pyrazolo[1,5-a]pyrido-pyrimidines as antagonists of serotonin 5-HT6 receptors, methods for the production and use thereof” (2013).

Amino acid sequences for entries named in this document (tags omitted).
UniProt P50406, whole entry: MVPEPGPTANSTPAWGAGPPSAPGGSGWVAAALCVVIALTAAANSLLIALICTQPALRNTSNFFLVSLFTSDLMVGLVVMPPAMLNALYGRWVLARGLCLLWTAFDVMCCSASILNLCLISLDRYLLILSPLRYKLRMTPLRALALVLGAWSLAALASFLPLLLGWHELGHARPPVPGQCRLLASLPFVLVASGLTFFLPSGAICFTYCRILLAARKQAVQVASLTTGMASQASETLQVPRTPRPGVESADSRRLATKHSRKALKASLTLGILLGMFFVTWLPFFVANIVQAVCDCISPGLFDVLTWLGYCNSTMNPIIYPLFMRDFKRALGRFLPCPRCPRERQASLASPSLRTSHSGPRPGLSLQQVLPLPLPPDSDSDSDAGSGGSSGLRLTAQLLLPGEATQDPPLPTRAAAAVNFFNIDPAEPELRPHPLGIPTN

Target: 5-hydroxytryptamine receptor 6 (Homo sapiens, UniProt P50406)
Assay: Competitive Binding Assay: Activity test of serotonin 5-HT6 receptor antagonists of the general formulas 1, 2 in the setting of competitive binding to serotonin 5-HT6 receptors.

IC50: 23.9 nM
Ki: 11.1 nM
SMILES: CSc1nn2c3c(c(C)nc2c1S(=O)(=O)c1cccc(Cl)c1)CNCC3
